Experiment [1] has as its target human TrxR1 (Homo sapiens, UniProt Q16881).
Experiment [2] relates to C13* cisplatin-resistant ovarian cancer cells.
In experiment [3] the test system is BxPC3 pancreatic cancer cells.
Experiment [4] concerns A549 lung cancer cells.
Experiment [5] deals with A375 melanoma cells.
Experiment [6] concerns MCF-7 breast cancer cells.
In experiment [7] the test system is A431 cervical carcinoma cells.
The test system of experiment [8] is HCT-15 colon cancer cells.
Experiment [9] concerns 2008 ovarian cancer cells.
For experiment [10], the system named is TrxR. The settings on record: in vitro; cited from earlier work.

This is an account of results in PMC7700221, “Antiproliferative Homoleptic and Heteroleptic Phosphino Silver(I) Complexes: Effect of Ligand Combination on Their Biological Mechanism of Action” (Molecules, 2020).

One may read the IC50 as the concentration at which inhibition is half-maximal. Read a high IC50 as lower potency. Substance AgNO3 came in with an IC50 in experiment [1] of 0.0024 µM.
[Ag(DAPTA)4]BF4: the IC50 in experiment [2] came out at 13.4 µM; in experiment [3] it was 7.5 µM; in experiment [4] it was 8.5 µM; in experiment [5], 9.1 µM; in experiment [6], 11.3 µM; in [7], 11.2 µM. For the same substance, the results for the IC50 in [1], in [8] and in experiment [9] were 0.0072 µM, 16.2 µM and 10.3 µM, respectively.
[Ag(PCN)2]BF4: the IC50 was 4.1 µM in [2]; 3.1 µM in experiment [3]; 5.5 µM in [4]; 5.3 µM in experiment [5]; 4 µM in experiment [6]; 2.9 µM in experiment [7]. The IC50 in experiment [1] came out at 0.0024 µM; in experiment [8] it was 3.6 µM; in experiment [9] it was 3.1 µM.
Regarding [Ag(PPh3)4]BF4, the IC50 is 6.1 µM in experiment [2]; 3.1 µM in experiment [3]; 3 µM in [4]; 3.2 µM in [5]; 5.1 µM in [6]; 2 µM in [7]. Moreover, the IC50 in experiment [1] worked out at 0.0032 µM; in [8] it was 3.4 µM; in [9] it was 4.2 µM.
As for [Ag(PTA)4]BF4, the IC50 in experiment [2] was 10.9 µM; in [3] it was 13.2 µM; in [4], 10.2 µM; in experiment [5] it was 8.2 µM; in experiment [6], 11.5 µM; in experiment [7] it was 9.3 µM. In addition, the IC50 in [1] was determined as 0.0093 µM; in [8] it was 10.2 µM; in experiment [9], 9.23 µM.
In the case of [Ag(PTA)4]PF6, in experiment [10], the “TrxR IC50” value is reported as “nanomolar range”.
Take [Ag(PTA-SO2)4]BF4: the IC50 in [2] was 16.3 µM; in [3] it was 5.3 µM; in experiment [4] it was 13.2 µM; in experiment [5] it was 6.3 µM; in [6] it was 12.2 µM; in experiment [7], 4.1 µM. The IC50 in experiment [8] came out at 17.7 µM; in [9] it was 13.2 µM.
As to [HB(pz)3]Ag(DAPTA), the IC50 in experiment [2] is 8.4 µM; in experiment [3], 7.6 µM; in experiment [4], 7.5 µM; in experiment [5] it was 9.2 µM; in experiment [6] it was 7.4 µM; in experiment [7], 6.7 µM. The IC50 amounted to 0.0035 µM in experiment [1], 7.6 µM in experiment [8] and 8.9 µM in [9].
Turning to [HB(pz)3]Ag(PCN), the IC50 in experiment [2] came to 6.5 µM; in experiment [3], 5.6 µM; in [4], 4.1 µM; in [5], 8.9 µM; in experiment [6] it was 5.1 µM; in experiment [7], 2.9 µM. Moreover, the results for the IC50 in [1], in experiment [8] and in [9] were 0.0027 µM, 3.3 µM and 7.8 µM, respectively.
Consider [HB(pz)3]Ag(PPh3), for which the IC50 amounted to 2.1 µM in experiment [2]; 4.4 µM in experiment [3]; 2.1 µM in [4]; 2.2 µM in experiment [5]; 2.9 µM in [6]; 1.5 µM in [7]. The IC50 in experiment [1] was 0.0033 µM; in experiment [8], 2.1 µM; in experiment [9], 2.02 µM.
[HB(pz)3]Ag(PTA): the IC50 in experiment [2] stood at 7.4 µM; in experiment [3], 6.6 µM; in experiment [4], 5.1 µM; in experiment [5], 8.1 µM; in experiment [6], 6.5 µM; in experiment [7], 10.3 µM. In addition, the figures for the IC50 in [1], in experiment [8] and in experiment [9] were 0.0028 µM, 8.5 µM and 6.7 µM, respectively.
In the case of [HB(pz)3]Ag(PTA-SO2), the IC50 is 5.6 µM in [2]; 5.1 µM in experiment [3]; 8.3 µM in experiment [4]; 5.2 µM in [5]; 5.1 µM in experiment [6]; 4.5 µM in experiment [7]. In addition, the IC50 in experiment [1] stood at 0.0026 µM; in experiment [8], 7.4 µM; in experiment [9], 6.3 µM.
